According to PubChem BioAssay AID504339 (National Center for Advancing Translational Sciences (NCATS), 2011):
Only a part is listed here, and it is no random draw. Inconclusive results are not listed. A call without a number means that no potency is given here. Activity calls are given as the source filed them. The call rests on the fitted dose curve; in most records, active means well fitted inhibition curve with a large enough effect; inconclusive means small, poorly fitted or top-dose-only effect; inactive means no such curve, though single readings can be large or run the other way.

Protein sequences, listed by entry. Tags and fused reporters are not part of them. Lines headed by an entry give the natural chain unless they say otherwise; changes in a name come on top.
UniProt O75164: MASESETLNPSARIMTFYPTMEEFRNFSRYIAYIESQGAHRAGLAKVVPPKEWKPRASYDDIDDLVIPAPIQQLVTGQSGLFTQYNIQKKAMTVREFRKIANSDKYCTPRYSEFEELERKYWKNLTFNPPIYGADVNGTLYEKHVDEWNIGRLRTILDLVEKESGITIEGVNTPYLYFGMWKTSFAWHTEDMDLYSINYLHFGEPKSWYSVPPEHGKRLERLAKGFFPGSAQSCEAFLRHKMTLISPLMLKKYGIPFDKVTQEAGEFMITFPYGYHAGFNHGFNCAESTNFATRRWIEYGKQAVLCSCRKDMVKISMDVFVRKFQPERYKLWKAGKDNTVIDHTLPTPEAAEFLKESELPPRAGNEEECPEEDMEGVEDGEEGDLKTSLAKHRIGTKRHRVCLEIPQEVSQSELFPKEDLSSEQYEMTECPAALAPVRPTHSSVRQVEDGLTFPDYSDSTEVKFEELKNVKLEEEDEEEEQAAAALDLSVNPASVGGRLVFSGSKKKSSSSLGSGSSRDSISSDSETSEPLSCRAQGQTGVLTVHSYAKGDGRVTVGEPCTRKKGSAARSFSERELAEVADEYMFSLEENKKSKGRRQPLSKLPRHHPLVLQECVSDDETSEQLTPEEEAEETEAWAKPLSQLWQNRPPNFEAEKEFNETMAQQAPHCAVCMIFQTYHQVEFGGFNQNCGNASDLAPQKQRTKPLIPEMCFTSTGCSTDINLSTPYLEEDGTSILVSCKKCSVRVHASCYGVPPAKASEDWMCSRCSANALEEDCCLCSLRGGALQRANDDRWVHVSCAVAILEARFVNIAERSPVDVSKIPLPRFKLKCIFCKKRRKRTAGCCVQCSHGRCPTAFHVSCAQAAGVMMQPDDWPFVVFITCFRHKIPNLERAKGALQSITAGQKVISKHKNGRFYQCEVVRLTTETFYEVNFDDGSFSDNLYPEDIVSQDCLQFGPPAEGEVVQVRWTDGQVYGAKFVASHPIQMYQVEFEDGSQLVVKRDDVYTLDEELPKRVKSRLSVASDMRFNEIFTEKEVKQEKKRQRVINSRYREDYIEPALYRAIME

Each molecule was assayed against Lysine-specific demethylase 4A (Homo sapiens) (UniProt O75164) (assay: qHTS Assay for Inhibitors of JMJD2A-Tudor Domain). Details: AlphaScreen JMJD2A-Tudor / H3K4me3 peptide binding; series mostly up to 114 µM.
Further: nearly all actives have a fitted effect of over 50% in size.
Potency means the concentration at half of the fitted maximal effect.

Row | SMILES | Potency | activity change, negative = inhibition
1 | O=P1(Nc2nc3ccc(Cl)cc3s2)COc2ccccc2O1 (configuration not stated) | inactive | –
2 | CCOc1ccc(C2=NCC(CBr)S2)cc1 (configuration not stated) | inactive | –
3 | CCc1cc(O)c([N+](=O)[O-])c(C)c1[N+](=O)[O-] | inactive | –
4 | CC(C)(C)C(=O)NC(Sc1ccccc1)C(Cl)(Cl)Cl (configuration not stated) | inactive | –
5 | Nc1cc(N)c2nonc2c1[N+](=O)[O-] | inactive | –
6 | CC(C)CC(=O)NC(Sc1ccc(Cl)cc1)C(Cl)(Cl)Cl (configuration not stated) | inactive | –
7 | Oc1ccccc1CNc1ccccn1 | inactive | –
8 | O=C(NC(Sc1ccncn1)C(Cl)(Cl)Cl)c1ccccc1 (configuration not stated) | active: 4.47 µM | –
9 | NC(=O)c1cc([N+](=O)[O-])cc([N+](=O)[O-])c1N | inactive | –
10 | CN(C(=O)Cc1ccc(Cl)c(Cl)c1)[C@H]1CCCC[C@H]1N1CCCC1 | inactive | –
11 | Cc1ccc(N/C(=N/P(=O)(N2CCOCC2)N2CCOCC2)N2CCOCC2)cc1 | inactive | –
12 | COc1ccccc1OP(=O)(Nc1ccc(C)cn1)Oc1ccccc1OC | inactive | –
13 | Cc1ccc(OP(=O)(Nc2nccs2)Oc2ccc(C)cc2)cc1 | inactive | –
14 | CN1CCCC(OC(=O)C(c2ccccc2)c2ccccc2)C1 (configuration not stated) | inactive | –
15 | Clc1ccc(Cl)c(NC2=NCC(CBr)S2)c1 (configuration not stated) | inactive | –
16 | CCN(N=Nc1nonc1N)c1nonc1N | inactive | –
17 | Nc1cccc2ccc([As](=O)(O)O)cc12 | inactive | –
18 | CC(=O)Nc1ccc([As](=O)(O)O)cc1 | inactive | –
19 | O=C(O)c1ccccc1[As](=O)(O)O | inactive | –
20 | CCCC1OP(N)(=O)OCC1CC (configuration not stated) | inactive | –
21 | O=P(Nc1nc2ccc(Cl)cc2s1)(c1ccccc1)c1ccccc1 | inactive | –
22 | Cc1cc(SC(NC(=O)c2ccc(F)cc2)C(Cl)(Cl)Cl)ncn1 (configuration not stated) | active: 5.62 µM | –
23 | CCOP(=O)(Nc1ccccc1)OCC | inactive | –
24 | CN(C(=O)Cc1ccc(Cl)c(Cl)c1)[C@H]1CCCC[C@@H]1N1CCCC1 | inactive | –
25 | Cc1ccc(NP(=O)(Oc2ccccc2F)Oc2ccccc2F)nc1 | inactive | –
26 | CC(C)(C)C(=O)NC(Sc1ccncn1)C(Cl)(Cl)Cl (configuration not stated) | active: 17.8 µM | –

Row | SMILES | Potency | activity change, negative = inhibition
27 | O=[N+]([O-])c1ncn(CCn2ncnc2[N+](=O)[O-])n1 | inactive | –
28 | COC(=O)C1(C)COP(=O)(Nc2ccccc2)OC1 (configuration not stated) | inactive | –
29 | O=[N+]([O-])c1cccc(NC2=NCC(CBr)S2)c1 (configuration not stated) | inactive | –
30 | O=C(O)CNc1ccc([As](=O)(O)O)cc1 | inactive | –
31 | O=P1(N(CCCl)CCCl)OCCCS1 (configuration not stated) | inactive | –
32 | O=P(/N=c1/nc(-c2ccccc2)n(-c2ccccc2)s1)(Nc1ccccc1)Nc1ccccc1 | inactive | –
33 | O=C(Nc1cc([As](=O)(O)O)ccc1O)c1ccccc1 | inactive | –
34 | Nc1ccc([As](=O)(O)c2ccc(N)cc2)cc1 | inactive | –
35 | CCN(/C(=N/P(=O)(N1CCOCC1)N1CCOCC1)N1CCOCC1)c1ccc(OC)cc1 | inactive | –
36 | CC(C)=N/N=C(\N)N[N+](=O)[O-] | inactive | –
37 | CN(C)C(=O)OCCc1n(C)cc[n+]1C | inactive | –
38 | CC1CCN(C(=O)Oc2c(Cl)cc(Cl)c3cccnc23)CC1 | inactive | –
39 | COc1ccc(C2=NCC(CBr)S2)cc1 (configuration not stated) | inactive | –
40 | CC(=O)N1C2C3N(C(C)=O)C1C1N(C(C)=O)C(C(N1C(C)=O)N3C(C)=O)N2C(C)=O | inactive | –
41 | O=[N+]([O-])c1cccc2n[nH]nc12 | inactive | –
42 | Cc1ccc(NP(=O)(Oc2ccccc2)Oc2ccccc2)nc1 | inactive | –
43 | CCc1nc2c(n1)c1c(non1O)c1c2no[n+]1[O-] | inactive | –
44 | CCOC(=O)c1ccc(NC(=O)C(C)(CCl)SC)cc1 (configuration not stated) | inactive | –
45 | O=C(OC1CN2CCC1CC2)c1cccc([N+](=O)[O-])c1 (configuration not stated) | inactive | –
46 | CCOP(=O)(Nc1cccc2cccnc12)OCC | inactive | –
47 | CCC(C)N(CC(C)C)C(=S)SC(NC(C)=O)C(Cl)(Cl)Cl (configuration not stated) | inactive | –
48 | O=C(COc1ccccc1)OC1CN2CCC1CC2 (configuration not stated) | inactive | –
49 | O=C(Nc1ccncc1[N+](=O)[O-])c1ccc([N+](=O)[O-])cc1[N+](=O)[O-] | inactive | –
50 | CCOC(=O)Nc1cccc([As](=O)(O)O)c1 | inactive | –
51 | O=[N+]([O-])c1ccc(Nc2ccc(Oc3ccc([N+](=O)[O-])cc3[N+](=O)[O-])cc2)c([N+](=O)[O-])c1 | inactive | –
52 | CC1CCNP(=O)(N(CCCl)CCCl)O1 (configuration not stated) | inactive | –

Row | SMILES | Potency | activity change, negative = inhibition
53 | CCOC(=O)Nc1ccc([As](=O)(O)O)c(O)c1 | – | inactive: -11.8% [at 11.4 µM]
54 | CCCCOc1ccc(C(=O)NCC2(N3CCCCC3)CCCCC2)cc1OC | inactive | –
55 | Cc1cc(SC(NC(=O)c2ccccc2)C(Cl)(Cl)Cl)nc(C(C)C)n1 (configuration not stated) | active: 70.8 µM | –
56 | COC(=O)C1(C)COP(=O)(N2CCCCCC2)OC1 (configuration not stated) | inactive | –
57 | CC(C)c1ccc(OP(=O)(Nc2ccccn2)Oc2ccccc2F)cc1 (configuration not stated) | inactive | –
58 | ClCCSc1nnc(-c2cccnc2)o1 | inactive | –
59 | CC(C)NC(=O)NP(=O)(Oc1ccccc1)Oc1ccccc1 | inactive | –
60 | O=C(OC1CN2CCC1CC2)c1cccc2[nH]cnc12 (configuration not stated) | inactive | –
61 | CCN(CC)C(=S)SC(NC=O)C(Cl)(Cl)Cl (configuration not stated) | inactive | –
62 | C[As](=O)(O)c1cccc(C(=O)O)c1 | inactive | –
63 | O=[As](O)(c1ccc(O)cc1)c1ccccc1O | inactive | –
64 | O=[N+]([O-])c1ccc(-c2cc([N+](=O)[O-])c(O)c([N+](=O)[O-])c2)cc1 | active: 14.1 µM | –
65 | COc1cc(C(=O)NCC2(N3CCOCC3)CCCCC2)ccc1OCC(C)C | inactive | –
66 | Cc1ccc2nc3c(c(C)c2c1)CC(C(Cl)Cl)S3 (configuration not stated) | inactive | –
67 | Cc1ccc(OP(=O)(Nc2ccc([N+](=O)[O-])cn2)Oc2ccc(C)cc2)cc1 | inactive | –
68 | COc1ccc(N/C(=N/P(=O)(N2CCOCC2)N2CCOCC2)N2CCOCC2)cc1 | inactive | –
69 | O=C(OC1CN2CCC1CC2)C12CC3CC(CC(C3)C1)C2 (configuration not stated) | inactive | –
70 | Cc1cc(=O)[nH]c(N[N+](=O)[O-])n1 | inactive | –
71 | Cc1c2c(nc3ccccc13)SC(C(Cl)Cl)C2 (configuration not stated) | inactive | –
72 | COc1ccc2nc(NP(=O)(c3ccccc3)c3ccccc3)sc2c1 | inactive | –
73 | COc1cc(I)ccc1[As](=O)(O)O | inactive | –
74 | O=P1(N(CCCl)CCCl)Nc2ccccc2N1 | inactive | –
75 | O=P1(N(CCCl)CCCl)OCCCN1CCCl (configuration not stated) | inactive | –
76 | CCCOP(=S)(Nc1nc(N)cc(=O)[nH]1)OCCC | inactive | –
77 | Nc1cccc2c([As](=O)(O)O)cccc12 | inactive | –
